Source: US6310072A (priority 1995, dated 2001)

Amino acid sequences for entries named in this document (tags omitted). A change or cut given only in a name is not applied to a line headed by its entry.
UniProt P33533: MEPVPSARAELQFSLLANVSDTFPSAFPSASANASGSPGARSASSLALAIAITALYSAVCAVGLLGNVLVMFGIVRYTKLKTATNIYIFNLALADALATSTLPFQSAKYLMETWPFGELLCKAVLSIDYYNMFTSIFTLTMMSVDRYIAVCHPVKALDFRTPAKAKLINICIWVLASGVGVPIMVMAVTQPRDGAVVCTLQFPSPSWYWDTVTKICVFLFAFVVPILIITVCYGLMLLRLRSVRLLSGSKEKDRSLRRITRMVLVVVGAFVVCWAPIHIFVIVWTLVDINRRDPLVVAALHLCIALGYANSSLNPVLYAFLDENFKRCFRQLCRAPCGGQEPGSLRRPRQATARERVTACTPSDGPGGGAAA

Experiments:
κ-opioid receptors = settings: i.c.v.; cited from earlier work
[1] = system: fetal dorsal root ganglion sensory neurones; settings: fM-pM antagonist with μM bimodally-acting opioid agonist such as morphine; cited from earlier work
δ-opioid receptor = δ-opioid receptor (Rattus norvegicus, UniProt P33533); assay: Radioligand binding assay, displacement of [3H]DPDPE-Cl in rat brain membranes; settings: against [3H]DPDPE

Question: With `CN(C(=O)Cc1ccccc1)[C@H]1CC[C@@]2(CCCO2)C[C@@H]1N1CCCC1` as the compound, how does the Antinociception profile (κ-opioid receptors) read?
Answer: antinociception characterised by a rapid onset of action and a single antinociceptive phase

Question: For `CO[C@]12CC[C@@]3(C[C@@H]1C(C)(C)O)[C@H]1Cc4ccc(O)c5c4[C@@]3(CCN1CC1CC1)[C@H]2O5`, which “Action potential duration (APD)” value [1] is on record?
Answer: marked shortening of the action potential duration (APD)

Question: For `CN(C(=O)Cc1ccc(Cl)c(Cl)c1)[C@@H]1CCCC[C@H]1N1CCCC1` (relative stereo), which Antinociception profile (κ-opioid receptors) is on record?
Answer: antinociception characterised by a rapid onset of action and a single antinociceptive phase

Question: For enkephalin-[D-Pen^2,5 ], which Kd (δ-opioid receptor) is on record?
Answer: 1.4 nM
